# Source: patent US20210215714A1, “COMPLEMENT ALTERNATIVE PATHWAY-ASSOCIATED NEPHROPATHY BIOMARKERS” (Achillion Pharmaceuticals, Inc., priority 2018, published 2021)
# The chains behind the UniProt entries cited, without tags or fusion partners. Residues count along the entry.
# UniProt P00746, 26-253: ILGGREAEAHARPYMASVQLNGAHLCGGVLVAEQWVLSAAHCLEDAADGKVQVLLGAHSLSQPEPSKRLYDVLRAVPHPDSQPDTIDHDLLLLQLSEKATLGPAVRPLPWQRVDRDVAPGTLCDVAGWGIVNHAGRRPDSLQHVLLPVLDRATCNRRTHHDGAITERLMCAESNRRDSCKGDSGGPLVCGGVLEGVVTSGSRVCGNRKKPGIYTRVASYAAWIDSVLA
# What was measured:
# fD [1] = biological target: T1, fD (Homo sapiens, UniProt P00746); conditions: read-out: binding affinity to human fD, KD
# fD [2] = biological target: T1, fD; test: biochemical
compound,measurement,setting,value
"CC(=O)c1nn(CC(=O)N2C[C@H](F)C[C@H]2C(=O)Nc2cccc(Br)n2)c2ccc(-c3cnc(C)nc3)cc12 [Compound 1, (2S,4R)-1-(2-(3-acetyl-5-(2-methylpyrimidin-5-yl)-1H-indazol-1-yl)acetyl)-N-(6-bromopyridin-2-yl)-4-fluoropyrrolidine-2-carboxamide]",Kd,fD [1],0.54 nM
same,IC50,fD [2],17 nM
